# In PubChem BioAssay AID1259310 (The Scripps Research Institute Molecular Screening Center, 2017):
# The chains behind the UniProt entries cited, without tags or fusion partners. Where a name states a change or a piece, a line headed by the entry shows the natural chain unless it says otherwise.
# UniProt Q969H0, whole entry, stated change not applied: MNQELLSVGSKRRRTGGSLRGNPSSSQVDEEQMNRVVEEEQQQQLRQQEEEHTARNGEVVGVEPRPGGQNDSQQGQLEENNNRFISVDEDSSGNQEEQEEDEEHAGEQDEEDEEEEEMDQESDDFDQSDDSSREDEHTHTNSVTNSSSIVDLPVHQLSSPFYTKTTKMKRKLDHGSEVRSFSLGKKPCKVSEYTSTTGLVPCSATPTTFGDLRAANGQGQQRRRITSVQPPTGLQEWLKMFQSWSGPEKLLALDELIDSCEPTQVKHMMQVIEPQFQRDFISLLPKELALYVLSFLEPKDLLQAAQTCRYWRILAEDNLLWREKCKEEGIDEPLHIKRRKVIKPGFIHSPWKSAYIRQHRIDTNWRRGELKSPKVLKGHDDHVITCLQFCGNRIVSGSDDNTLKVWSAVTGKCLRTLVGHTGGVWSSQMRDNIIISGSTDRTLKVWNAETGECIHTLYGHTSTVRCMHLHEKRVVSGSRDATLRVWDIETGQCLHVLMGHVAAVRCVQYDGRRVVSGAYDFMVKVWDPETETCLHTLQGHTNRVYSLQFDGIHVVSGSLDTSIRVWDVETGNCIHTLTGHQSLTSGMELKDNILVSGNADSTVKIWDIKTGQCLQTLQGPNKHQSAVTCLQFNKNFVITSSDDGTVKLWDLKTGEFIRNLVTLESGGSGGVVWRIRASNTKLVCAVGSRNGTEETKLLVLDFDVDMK
# The entries are a selection whose mix differs from that of the whole data set. Some salts and complexes are drawn in separate pieces, as the source files them; their charges need not balance. Active and inactive are the calls of the source. Rule as the data show it: active = normalized activity above about 1.9%; inactive = the rest.
# Target: F-box/WD repeat-containing protein 7 (Homo sapiens) (UniProt Q969H0)
# Assay: FBW7 E3 ligase activators, primary screen, biochemical, AlphaScreen, human (AID 1259310);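 also: purified mutant Fbw7 with reduced substrate affinity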
# Settings: AlphaScreen FBW7–phospho-cyclin E peptide binding, activator screen; at 26.1 µM; stronger effect = higher value
row,Structure (SMILES),normalized activity (activation)
1,O=[N+]([O-])c1cc([N+](=O)[O-])c(Nc2ccccc2CO)c([N+](=O)[O-])c1,inactive: -0.84%
2,CP(=O)(Nc1ccc(F)c(Cl)c1)Oc1ccccc1 (stereo not given),inactive: -0.21%
3,[O-][n+]1onc2c1c1no[n+]([O-])c1c1no[n+]([O-])c21,inactive: -0.32%
4,Cc1c([N+](=O)[O-])cc([N+](=O)[O-])c(Nc2ccc(C(=O)O)cc2)c1[N+](=O)[O-],inactive: 0.13%
5,COc1cccc(C(OP(C)(=O)O)C(F)(F)F)c1 (stereo not given),inactive: 0.5%
6,CP(=O)(Nc1ccc(Cl)cc1)Oc1ccc(F)cc1 (stereo not given),inactive: -0.01%
7,CN(C)/C=C(\C=O)c1c([N+](=O)[O-])cc([N+](=O)[O-])cc1[N+](=O)[O-],inactive: -0.13%
8,COc1ccccc1OP(C)(=O)Nc1c(C)n(C)n(-c2ccccc2)c1=O (stereo not given),inactive: -0.03%
9,OCCSCCO,inactive: 0.04%
10,CP(=O)(Oc1ccccc1)N1CCOC1=O (stereo not given),inactive: 0.24%
11,O=[N+]([O-])c1cc([N+](=O)[O-])c(N2CCOCC2)c([N+](=O)[O-])c1,inactive: 0.24%
12,CCc1ccc(OP(C)(=O)Nc2ccc(I)cc2)cc1 (stereo not given),inactive: 0.15%
13,CN1CCCC1=C1c2cc([N+](=O)[O-])cc([N+](=O)[O-])c2-c2c1cc([N+](=O)[O-])cc2[N+](=O)[O-],inactive: -0.18%
14,O=C(Nc1ccccc1O)c1c([N+](=O)[O-])cc([N+](=O)[O-])cc1[N+](=O)[O-],inactive: -0.22%
15,COc1ccc(OP(C)(=O)Nc2ccc(Br)cc2)cc1 (stereo not given),inactive: 0.28%
16,O=[N+]([O-])c1cc([N+](=O)[O-])c(NCc2ccccc2)c([N+](=O)[O-])c1,inactive: -1.51%
17,CN(c1nc2nonc2nc1N(C)[N+](=O)[O-])[N+](=O)[O-],inactive: 0.18%
18,N1=Nc2nonc2N=Nc2nonc21,inactive: 0.02%
19,C/C1=C2N=C(/C=C3N=C(/C(C)=C4\[N-]C(C(CC(N)=O)C4(C)CCC(=O)NCC(C)OP(=O)([O-])OC4C(CO)OC(n5cnc6cc(C)c(C)cc65)C4O)C4(C)N=C1C(CCC(N)=O)C4(C)CC(N)=O)C(CCC(N)=O)C\3(C)C)C(CCC(N)=O)C/2(C)CC(N)=O.C/C1=C2N=C(/C=C3N=C(/C(C)=C4\[N-]C(C(CC(N)=O)C4(C)CCC(=O)NCC(C)OP(=O)([O-])OC4C(CO)OC(n5cnc6cc(C)c(C)cc65)C4O)C4(C)N=C1C(CCC(N)=O)C4(C)CC(N)=O)C(CCC(N)=O)C\3(C)C)C(CCC(N)=O)C/2(C)CC(N)=O.[C-]#N.[Co+3] (stereo not given),inactive: -0.44%
20,CCOC(=O)c1ccc(NP(C)(=O)Oc2ccc(Cl)cc2)cc1 (stereo not given),inactive: 0.05%
21,CP(=O)(OC12CC3CC(CC(C3)C1)C2)OC12CC3CC(CC(C3)C1)C2,inactive: -0.08%
22,O=[N+]([O-])c1cc([N+](=O)[O-])c(Nc2ccccc2)c([N+](=O)[O-])c1,inactive: -0.27%
23,CC(C)c1ccc(OP(C)(=O)O)cc1,inactive: 0.65%
24,NNc1c([N+](=O)[O-])cc([N+](=O)[O-])cc1[N+](=O)[O-],inactive: -0.13%
25,Nc1nonc1-[n+]1nc2nonc2[n-]1,inactive: 0.07%

row,Structure (SMILES),normalized activity (activation)
1,CP(=O)(Nc1cccc(Cl)c1)Nc1cccc(Cl)c1,inactive: -0.07%
2,CC(Nc1c([N+](=O)[O-])cc([N+](=O)[O-])cc1[N+](=O)[O-])c1ccc([N+](=O)[O-])cc1 (stereo not given),inactive: -0.07%
3,CP(=O)(Nc1ccccc1Br)Oc1ccccc1 (stereo not given),inactive: 0.21%
4,COc1ccccc1OP(C)(=O)Nc1ccccc1 (stereo not given),inactive: 0.14%
5,CP(=O)(Nc1ccc(Cl)cc1)Oc1ccccc1 (stereo not given),inactive: -0.03%
6,O=[N+]([O-])c1cc([N+](=O)[O-])c(CCO)c([N+](=O)[O-])c1,inactive: -0.09%
7,CN(C)CCOC(=O)C(O)(c1ccccc1)c1ccccc1,inactive: 0.04%
8,CP(=O)(O)OC(c1ccccc1)C(F)(F)F (stereo not given),inactive: 0.23%
9,COc1ccc(NP(C)(=O)OC(c2ccccc2)C(F)(F)F)cc1 (stereo not given),inactive: 0.13%
10,CP(=O)(Nc1ccccn1)Oc1ccc(Cl)cc1 (stereo not given),inactive: -0.11%
11,Cc1cccc(NP(C)(=O)Oc2ccccc2)c1 (stereo not given),inactive: 0.21%
12,CCOC(=O)c1ccc(NP(C)(=O)Oc2ccc(OC)cc2)cc1 (stereo not given),inactive: 0.2%
13,Cc1ccc(Cl)cc1OP(C)(=O)Nc1cccc2nsnc12 (stereo not given),inactive: -0.22%
14,CCOP(C)(=S)SCC(=O)NC(C)C(=O)O (stereo not given),inactive: -0.04%
15,COc1ccccc1OP(C)(=O)Nc1cccc(Cl)c1C (stereo not given),inactive: 0.15%
16,CP(=O)(O)OC(c1ccc(Cl)cc1)C(F)(F)F (stereo not given),inactive: 0%
17,CP(=O)(NC(=O)Nc1ccccc1)Oc1ccccc1 (stereo not given),inactive: -0.04%
18,CP(=O)(O)OC(c1cccc(Cl)c1)C(F)(F)F (stereo not given),inactive: 0.02%
19,Cc1ccc(NP(C)(=O)Oc2ccccc2)cc1C (stereo not given),inactive: -0.04%
20,CCN(CC)P(=O)(c1c([N+](=O)[O-])cc([N+](=O)[O-])cc1[N+](=O)[O-])N(CC)CC,inactive: -0.1%
21,COc1cc2nc(C)sc2cc1NC(C)=O,inactive: 0.42%
22,CCOP(C)(=S)SCC(=O)NC(Cc1ccccc1)C(=O)O (stereo not given),inactive: -0.46%
23,C=C(C)CC1NC2CC(C)(C)C1c1ccccc12.O=[N+]([O-])c1cc([N+](=O)[O-])c(O)c([N+](=O)[O-])c1 (stereo not given),inactive: -0.04%
24,COc1ccc(NP(C)(=O)Oc2ccc(C(C)C)cc2)cc1 (stereo not given),inactive: 0.1%
25,O=[N+]([O-])c1c(NCCO)c([N+](=O)[O-])c(NCCO)c([N+](=O)[O-])c1NCCO,inactive: 0.27%
